## scFv variants of Ab-91 (heavy chain) against a SARS-CoV-2 spike peptide

Antigen: PDVDLGDISGINAS, a 14-residue peptide of the SARS-CoV-2 spike HR2 region.

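Phage display of a naive human antibody library on the peptide gave the parent. In library AAYL51, one, two or three CDR residues were substituted; doubles and triples were drawn at random. In AlphaSeq, yeast of one mating type display the scFv and yeast of the other type display the target. Binding brings cells together so that they mate, and sequencing counts the barcode pairs among the diploids. Read counts were normalised to the haploid input and turned into Kd by a linear fit to BCL2-family pairs of known affinity, for each replicate. There are three technical replicates.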

Ab-91 is the parent antibody, in scFv form: VL, then a (GGGGS)3 linker, then VH. The light chain is unchanged in all variants.
VL: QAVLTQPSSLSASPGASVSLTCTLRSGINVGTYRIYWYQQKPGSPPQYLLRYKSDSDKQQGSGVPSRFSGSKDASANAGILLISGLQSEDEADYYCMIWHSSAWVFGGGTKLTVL
VH: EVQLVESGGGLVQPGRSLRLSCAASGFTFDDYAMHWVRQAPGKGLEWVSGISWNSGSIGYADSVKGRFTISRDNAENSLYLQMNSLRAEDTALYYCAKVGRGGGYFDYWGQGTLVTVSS

Substitutions are numbered in sequence along the VH above, starting at 1 (not Kabat).
Affinities are written as log10 Kd with Kd in nM; a lower number is a better binder.
Replicates are averaged; those with no signal do not enter the mean.
"ND" marks a missing value. The strain was present, yet no cells mated with the target were sequenced in that replicate, which points to weak or no binding.

| changes | log10 Kd (nM) by replicate | log10 Kd (nM), mean | signal with controls |
|---|---|---|---|
| M34P G59L F106L | ND / ND / ND | ND | 1 of 9 (3.60) |
| D31L V99R G104K | 0.58 / 0.47 / -0.21 | 0.28 | 0 of 9 |
| K65C D107Y Y108F | 4.17 / ND / ND | 4.17 | 3 of 9 (3.94) |
| I51M N54E G102F | ND / ND / 5.45 | 5.45 | 4 of 9 (4.73) |
| G26F N54V S55P | ND / ND / ND | ND | 0 of 9 |
| M34C S52H G102C | ND / ND / ND | ND | 0 of 9 |
| N54T G56R Y108I | 6.26 / ND / 5.30 | 5.78 | 6 of 9 (4.45) |
| G26D S52N I58C | ND / ND / ND | ND | 0 of 9 |
| S55V G59H A61P | 4.66 / ND / ND | 4.66 | 1 of 9 (4.30) |
| T28K I58H S63A | 3.67 / 5.75 / 3.55 | 4.33 | 3 of 9 (4.44) |
| F29H N54K G103V | 5.31 / 4.92 / ND | 5.12 | 3 of 9 (4.76) |
| G50E Y60S V64G | 5.61 / ND / ND | 5.61 | 3 of 9 (4.82) |
| F27M G102L | ND / ND / ND | ND | 1 of 9 (4.16) |
| Y32K Y60H R101D | ND / 4.79 / 5.01 | 4.90 | 1 of 9 (4.86) |
| D107P Y108G | ND / ND / ND | ND | 0 of 9 |
| M34E A61N R101V | 4.85 / 3.97 / ND | 4.41 | 0 of 9 |
| I51E Y60S | ND / ND / ND | ND | 1 of 9 (2.95) |
| T28C M34E G59I | ND / ND / 5.61 | 5.61 | 2 of 9 (5.19) |
| G50Q K65N G103Y | ND / ND / ND | ND | 0 of 9 |
| D30A M34F F106L | 4.65 / 4.02 / 4.83 | 4.50 | 4 of 9 (4.68) |
| G59D V64R V99C | 5.48 / 5.07 / ND | 5.27 | 4 of 9 (5.15) |
| N54S Y105G Y108E | ND / ND / ND | ND | 0 of 9 |
| S57P D62P K65A | 4.56 / ND / 4.36 | 4.46 | 2 of 9 (4.08) |
| T28E F29W M34C | ND / ND / 4.84 | 4.84 | 2 of 9 (3.81) |
| S52E V99I D107Y | 4.00 / 6.16 / ND | 5.08 | 1 of 9 (4.28) |
| T28V G56T Y60W | ND / 4.90 / 4.25 | 4.58 | 1 of 9 (3.67) |
| S55V S63A V64Q | ND / ND / ND | ND | 0 of 9 |
| K65P G102Y | ND / ND / ND | ND | 0 of 9 |
| S52A V99E R101V | 2.17 / 2.10 / 1.81 | 2.03 | 0 of 9 |
| F27N M34Y N54Y | 4.57 / 6.80 / ND | 5.69 | 3 of 9 (5.30) |
| S52Q G100C D107C | ND / 3.40 / 3.03 | 3.22 | 1 of 9 (3.47) |
| N54K G59N D107A | ND / ND / 4.70 | 4.70 | 5 of 9 (4.13) |
| T28F S55R D107W | ND / ND / ND | ND | 0 of 9 |
| F29W D62V Y105M | ND / 5.98 / ND | 5.98 | 2 of 9 (3.88) |
| S55P D62N Y108H | ND / ND / ND | ND | 0 of 9 |
| T28N I58G G100Q | ND / ND / ND | ND | 1 of 9 (4.56) |
| Y60D | 3.04 / ND / 3.25 | 3.15 | 0 of 9 |
| S52Y A61E D62A | ND / ND / ND | ND | 0 of 9 |
| F27C I58L Y60D | ND / ND / 4.69 | 4.69 | 2 of 9 (3.47) |
| T28I G59V | ND / ND / ND | ND | 0 of 9 |
| D30T S52A A61S | 1.22 / 1.20 / 0.59 | 1.00 | 5 of 9 (5.35) |
| Y32I S52A | ND / ND / ND | ND | 0 of 9 |
| S63T K65N Y108G | 1.43 / 1.32 / 1.00 | 1.25 | 3 of 9 (4.23) |
| Y32M A33Y S63I | 2.93 / 2.35 / 3.06 | 2.78 | 3 of 9 (4.41) |
| G56I Y105A Y108Q | ND / ND / ND | ND | 1 of 9 (3.16) |
| G102P | 4.63 / ND / ND | 4.63 | 0 of 9 |
| D31V D62A F106I | 3.43 / 3.41 / 2.67 | 3.17 | 3 of 9 (4.31) |
| D31T G56W G59V | 4.40 / 4.76 / ND | 4.58 | 7 of 9 (4.69) |

Repeated from above, the 7 best binders with a signal in all replicates:

| changes | log10 Kd (nM) by replicate | log10 Kd (nM), mean | signal with controls |
|---|---|---|---|
| D31L V99R G104K | 0.58 / 0.47 / -0.21 | 0.28 | 0 of 9 |
| D30T S52A A61S | 1.22 / 1.20 / 0.59 | 1.00 | 5 of 9 (5.35) |
| S63T K65N Y108G | 1.43 / 1.32 / 1.00 | 1.25 | 3 of 9 (4.23) |
| S52A V99E R101V | 2.17 / 2.10 / 1.81 | 2.03 | 0 of 9 |
| Y32M A33Y S63I | 2.93 / 2.35 / 3.06 | 2.78 | 3 of 9 (4.41) |
| D31V D62A F106I | 3.43 / 3.41 / 2.67 | 3.17 | 3 of 9 (4.31) |
| T28K I58H S63A | 3.67 / 5.75 / 3.55 | 4.33 | 3 of 9 (4.44) |

In this assay the parent's reference entry averaged 1.86; its copy inside this library read 0.88.
As a blank, each scFv also met three strains without target: over library AAYL51, 21% of these pairings were detected, typically at 4.54 and seldom below 3.26. The control count says in how many pairings with the empty strains this scFv gave a signal, with their mean in brackets.

The measurements come from Engelhart et al. 2022 (doi:10.1038/s41597-022-01779-4) through the FLAb antibody collection.